Data: US11608342B2, “PDE9 inhibitors with imidazo triazinone backbone and imidazo pyrazinone backbone for treatment of peripheral diseases” (H. LUNDBECK A/S, priority 2015, dated 2023)

Settings: mouse, 10 mg/kg subcutaneous

Brain concentration after 30 minutes: 500 ng/mL
Compound: C[C@@H]1CN(Cc2ncccn2)C[C@H]1c1nc2c(cnn2C2CCOCC2)c(=O)[nH]1 (single isomer, unassigned) [reference compound]
